These are literature values, as cited in article PMC3869726, “Inhibition of Human Neutrophil Elastase by Pentacyclic Triterpenes” (PLoS ONE, 2013).

The target in this series is T1, Human neutrophil elastase (HNE) (Homo sapiens, UniProt P08246).
T1 construct: HNE (EC 3.4.21.37) from human leukocytes was purchased; purchased Innovative Research Company (Novi, Michigan); host or cells: human leukocytes (natural source)
T1 sequence (P08246 30-247 limits assumed): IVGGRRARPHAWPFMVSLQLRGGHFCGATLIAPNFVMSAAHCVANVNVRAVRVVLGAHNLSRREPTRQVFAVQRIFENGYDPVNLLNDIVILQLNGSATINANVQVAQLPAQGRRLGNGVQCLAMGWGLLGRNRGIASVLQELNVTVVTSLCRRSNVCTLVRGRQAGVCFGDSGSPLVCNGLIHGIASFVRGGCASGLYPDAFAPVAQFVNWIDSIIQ
Details: method as in PMID 22579959. As to conditions: positive control, irreversible HNE inhibitor; read-out: IC50, HNE inhibition; cited from earlier work.

Molecules are shown by their SMILES. pIC50: −log10 of the molar value.

The term pIC50 denotes the IC50 on a negative log10 scale, so that one unit is a factor of ten. With `CC(C)(C)C(=O)Oc1ccc(S(=O)(=O)Nc2ccccc2C(=O)NCC(=O)O)cc1` [ONO-5046, Sivelestat sodium hydrate, reference compound], the pIC50 is 7.06.
